Here are results for two substances from patent US9796704B2, “Substituted quinazolines as receptor-type kinase inhibitors” (Symphony Evolution, Inc., priority 2002, dated 2017).

Sequences of proteins named here, by UniProt entry; tags and fusion partners are left off. Residues count along the entry.
UniProt P29317, 598-890: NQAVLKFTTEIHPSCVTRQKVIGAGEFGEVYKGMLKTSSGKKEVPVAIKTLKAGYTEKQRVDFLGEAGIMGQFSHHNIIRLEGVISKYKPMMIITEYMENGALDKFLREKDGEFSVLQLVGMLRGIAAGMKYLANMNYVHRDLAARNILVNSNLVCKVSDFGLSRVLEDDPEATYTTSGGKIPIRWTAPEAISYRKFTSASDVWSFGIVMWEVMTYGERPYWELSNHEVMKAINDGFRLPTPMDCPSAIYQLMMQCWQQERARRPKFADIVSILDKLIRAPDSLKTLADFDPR
UniProt P35968, 807-1356: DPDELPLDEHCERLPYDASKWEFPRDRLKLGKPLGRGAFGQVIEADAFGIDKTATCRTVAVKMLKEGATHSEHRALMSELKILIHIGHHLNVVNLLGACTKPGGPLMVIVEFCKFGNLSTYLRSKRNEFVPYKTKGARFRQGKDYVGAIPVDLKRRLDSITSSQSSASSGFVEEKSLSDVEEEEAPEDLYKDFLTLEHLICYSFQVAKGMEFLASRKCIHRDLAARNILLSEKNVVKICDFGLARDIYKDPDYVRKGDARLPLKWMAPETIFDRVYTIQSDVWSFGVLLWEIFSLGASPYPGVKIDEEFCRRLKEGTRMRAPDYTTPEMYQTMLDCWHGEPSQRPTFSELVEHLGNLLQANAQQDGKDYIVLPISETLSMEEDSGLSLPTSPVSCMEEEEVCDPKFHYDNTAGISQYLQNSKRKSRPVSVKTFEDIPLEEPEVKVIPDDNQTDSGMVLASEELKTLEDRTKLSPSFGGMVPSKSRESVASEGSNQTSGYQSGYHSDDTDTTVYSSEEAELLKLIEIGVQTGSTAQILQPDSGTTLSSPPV

In experiment [1] the target is EphA2 (Homo sapiens (Human), UniProt P29317). Kind of experiment: EphA2 kinase inhibition, luciferase-coupled chemiluminescent assay (LCCA). The note with it: read-out: EphA2 IC50.
Experiment [2] has as its target KDR (Homo sapiens (Human), UniProt P35968). Kind of experiment: KDR kinase inhibition, luciferase-coupled chemiluminescent assay (LCCA). The note with it: read-out: KDR IC50.

“N-(3,4-dichlorophenyl)-6-(methyloxy)-7-{[(5-piperidin-2-yl-1,2,4-oxadiazol-3-yl)methyl]oxy}quinazolin-4-amine hydrochloride [Example 31]”: the concentration for half-maximal inhibition (IC50) in experiment [1] was less than 50 nM.
Turning to “N-(3,4-dichlorophenyl)-7-({[2-(1-ethylpiperidin-4-yl)-1,3-thiazol-4-yl]methyl}oxy)-6-(methyloxy)quinazolin-4-amine hydrochloride [Example 37]”, the IC50 in experiment [2] is less than 50 nM.

For orientation: IC50 means the concentration that gives 50% inhibition.
